The values that follow come from patent US7416848B2, “DNA encoding SNORF25 receptor” (H. Lundbeck A/S, priority 1999, dated 2008).

The target of the assay is T1, SNORF25 (Homo sapiens, UniProt Q8TDV5).
T1 sequence (Q8TDV5 1-335): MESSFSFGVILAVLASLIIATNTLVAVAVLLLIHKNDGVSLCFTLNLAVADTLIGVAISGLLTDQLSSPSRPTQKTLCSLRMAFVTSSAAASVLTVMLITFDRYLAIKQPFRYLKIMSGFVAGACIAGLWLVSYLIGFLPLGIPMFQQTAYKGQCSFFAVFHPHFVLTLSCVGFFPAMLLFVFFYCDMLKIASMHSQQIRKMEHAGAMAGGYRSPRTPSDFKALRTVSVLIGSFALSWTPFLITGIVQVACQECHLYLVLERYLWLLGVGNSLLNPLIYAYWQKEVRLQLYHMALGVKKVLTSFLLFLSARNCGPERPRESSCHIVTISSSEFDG
Nature of the assay: Stimulation of cAMP release by CHO cells stably expressing hSNORF25 receptors. The assay is classed as cell-based. Also on record: expressed in transfected cells. As to conditions: mean ± S.E.M., at least 3 experiments. The procedure:
CHO cells are grown on 150 mm plates in HAM's F-12 medium with supplements (10% bovine calf serum, 4 mM L-glutamine and 100 units/ml penicillin/100 μg/ml streptomycin) at 37° C., 5% CO2. Stock plates of CHO cells are trypsinized and split 1:8 every 3–4 days.
Heterologous DNA can be stably incorporated into host cells, causing the cell to perpetually express a foreign protein. Methods for the delivery of the DNA into the cell are similar to those described above for transient expression but require the co-transfection of an ancillary gene to confer drug resistance on the targeted host cell. The ensuing drug resistance can be exploited to select and maintain cells that have taken up the DNA. […]
The receptor-mediated stimulation or inhibition of cyclic AMP (cAMP) formation may be assayed in cells expressing the receptors. […] The plates are stored at 4° C. for 15 min, and the cAMP content in the stopping solution is measured by radioimmunoassay. Radioactivity may be quantified using a gamma counter equipped with data reduction software. […]
According to a second method, cells are washed 2 times with HEPES buffered saline, as described above, and incubated overnight. […] The plates are stored at 4° C. for 15 min, and the cAMP content in the stopping solution is measured by radioimmunoassay. Radioactivity may be quantified using a gamma counter equipped with data reduction software. […]

The term EC50 denotes the concentration that produces a half-maximal response. Lower therefore signals higher potency in that assay. As to PAF(C16), the half-maximal effective concentration (EC50) was determined as 982 ± 233 nM.
